Data set [1] in a line: Clearance in human hepatocytes by LC-MS/MS analysis. It is filed as ADME, cell-based, Hepatocyte.
Data set [2] deals with Free fatty acid receptor 1 (Rattus norvegicus) (UniProt Q8K3T4). The data set can be described thus: Agonist activity at GPR40 in Sprague-Dawley rat pancreatic islets assessed as induction of glucose-mediated insulin secretion measured after 90 mins in EBSS buffer by ELISA. As to conditions: Pancreatic islet, filed as agonist. It counts as tissue-based. The method in brief:
(§1)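 Glucose-dependent insulin secretion in mouse MIN6 cells or rat islet cells, scored as secretion above the glucose-alone level.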

Amino acid sequences for entries named in this document (tags omitted).
UniProt Q8K3T4, whole entry: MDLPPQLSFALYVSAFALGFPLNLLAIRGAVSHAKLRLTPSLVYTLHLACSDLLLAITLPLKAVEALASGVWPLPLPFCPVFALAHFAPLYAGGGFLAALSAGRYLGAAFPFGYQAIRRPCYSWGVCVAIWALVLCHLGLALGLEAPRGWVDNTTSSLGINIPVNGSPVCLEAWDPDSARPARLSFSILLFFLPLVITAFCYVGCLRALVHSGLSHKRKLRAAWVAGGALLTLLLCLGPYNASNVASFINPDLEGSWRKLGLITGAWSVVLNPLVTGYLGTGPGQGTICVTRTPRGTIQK
UniProt O14842, whole entry: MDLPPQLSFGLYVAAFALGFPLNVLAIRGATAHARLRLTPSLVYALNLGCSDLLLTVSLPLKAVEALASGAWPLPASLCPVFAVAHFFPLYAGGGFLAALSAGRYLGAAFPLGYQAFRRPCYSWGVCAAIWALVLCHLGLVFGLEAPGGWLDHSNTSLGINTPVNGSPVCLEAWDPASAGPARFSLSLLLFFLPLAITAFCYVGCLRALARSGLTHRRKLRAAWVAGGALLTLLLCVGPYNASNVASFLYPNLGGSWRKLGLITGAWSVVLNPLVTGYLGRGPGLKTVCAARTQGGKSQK
UniProt Q76JU9, whole entry: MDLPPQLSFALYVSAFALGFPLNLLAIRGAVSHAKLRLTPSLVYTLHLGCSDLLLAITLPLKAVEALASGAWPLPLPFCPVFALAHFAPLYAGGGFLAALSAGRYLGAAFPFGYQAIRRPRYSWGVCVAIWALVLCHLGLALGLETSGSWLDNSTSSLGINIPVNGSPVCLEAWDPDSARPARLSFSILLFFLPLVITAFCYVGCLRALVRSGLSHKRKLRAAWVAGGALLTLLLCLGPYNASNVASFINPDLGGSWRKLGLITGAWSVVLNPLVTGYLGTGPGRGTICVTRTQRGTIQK

For data set [3], the target named is T1, Free fatty acid receptor 1 (Homo sapiens, UniProt O14842). The data set can be described thus: Agonist activity at human recombinant full length GPR40 overexpressed in human HEK293 cells assessed as increase in intracellular calcium level measured over 3 mins by calcium 4 dye based FLIPR assay relative to 100 uM linoleic acid. As to conditions: filed as agonist. It counts as functional, cell-based. The method in brief:
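HEK293 cells overexpressing hGPR40 (25K/well) were cultured overnight in DMEM/F12 with 0.2% FBS and geneticin. Compound was tested at 40 μM–0.1 nM final (20-point, 1% DMSO), and FLIPR fluorescence was read over 3 min.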
In general terms: Calcium flux is commonly read through the fluorescence of an indicator in the cells.

Data set [4] concerns the target T1, Free fatty acid receptor 1. Description: Agonist activity at human recombinant full-length Prolink-tagged GPR40 fused with EA-tagged beta-arrestin expressed in human HEK293 cells assessed as induction of beta-arrestin recruitment measured after 90 mins by beta-galactosidase based PathHunter assay relative to control. As to conditions: filed as agonist. It counts as cell-based. The method in brief:
(§2)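 PathHunter β-gal complementation. Cells were incubated overnight at 5000/well in medium with 1% heat-inactivated FBS. Compound was added as a 20-point 2-fold series from a top final of 100 μM (1% DMSO) for 90 min at 37 °C, followed by detection reagents and chemiluminescence read after 1 h at rt.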
In general terms: Arrestin recruitment assays detect the binding of arrestin to an activated receptor.

The target in data set [5] is Free fatty acid receptor 1 (Mus musculus) (UniProt Q76JU9). Description: Agonist activity at Prolink-tagged mouse GPR40 fused with EA-tagged beta-arrestin expressed in human U2OS cells assessed as induction of beta-arrestin recruitment measured after 90 mins by beta-galactosidase based PathHunter assay relative to control. It is filed as cell-based. The following applies: filed as agonist. The method in brief: as §2

For data set [6], the target named is Free fatty acid receptor 1 (Rattus norvegicus) (UniProt Q8K3T4). Description: Agonist activity at Prolink-tagged rat GPR40 fused with EA-tagged beta-arrestin expressed in human U2OS cells assessed as induction of beta-arrestin recruitment measured after 90 mins by beta-galactosidase based PathHunter assay relative to control. The following applies: filed as agonist. It is filed as cell-based. An outline of the steps:
as §2

Data set [7] has as its target T1, Free fatty acid receptor 1. The data set can be described thus: Agonist activity at human recombinant full length GPR40 overexpressed in human HEK293 cells assessed as increase in inositol phosphate accumulation in presence of terbium cryptate-labeled anti IP1/d2-labelled IP1 measured after 120 mins by HTRF assay relative to AMG837. It is filed as functional, cell-based. As to conditions: filed as agonist. An outline of the steps: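 HEK293 hGPR40 cells (20K/well) were cultured overnight, washed, and held in IP1 stimulation buffer. IP-1 was measured by competitive HTRF immunoassay with terbium cryptate anti-IP1 mAb and d2-labelled IP1.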
(TR-FRET usually uses a lanthanide donor and a delayed reading to cut background.)

For data set [8], the target named is T1, Free fatty acid receptor 1. The data set can be described thus: Displacement of [3H]-(S)-2-(6-((2',6'-dimethyl-4'-(3-(methylsulfonyl)propoxy)biphenyl-3-yl)methoxy)-2,3-dihydrobenzofuran-3-yl)acetic acid from human recombinant full-length GPR40 expressed in human HEK293 cell membrane assessed as residence time by radioligand competitive assay. It counts as cell membranes. The following applies: filed as agonist. The method in brief: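 Residence time came from competitive association kinetics. [3H]-radioligand binding to human GPR40 HEK293 membranes (5 μg, rt, Tris/Ca/Mg/0.1% BSA buffer) was measured at time points over 0–3 h, with and without several concentrations of unlabeled test compound. Fits used association and dissociation rates of the radioligand from independent kinetic experiments.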

Data set [9] addresses Free fatty acid receptor 1 (Mus musculus) (UniProt Q76JU9). The data set can be described thus: Agonist activity at GPR40 in mouse MIN6 cells assessed as induction of glucose-mediated insulin secretion incubated for 2 hrs by ELISA. As to conditions: filed as agonist. It is filed as cell-based. The method in brief:
as §1

Calls of active or inactive are those of the source. The rule behind the calls is not given here.

In turn, `CC#C[C@@H](CC(=O)O)c1ccc(OCc2ccc(CN3CCC4(C=Cc5ccccc54)CC3)cc2)cc1` [LY2881835] yielded a CLH in [1] of 0.28 h⁻¹.

As for `Cc1cc(OCCCS(C)(=O)=O)cc(C)c1-c1cccc(COc2ccc3c(c2)OC[C@H]3CC(=O)O)c1`, the outcome in data set [2] and in data set [9] was Active. Moreover, the Emax (commonly the size of the effect at its maximum, as opposed to the concentration needed) is 67% in data set [3]; 119% in data set [4]; 117% in data set [5]; 97% in [6]; 145% in data set [7]. In addition, in data set [8], the TIME amounted to 1.27 h.
